One assay deals with human μ-opiate receptor (Homo sapiens, UniProt P35372). The assay can be described thus: Affinity for μ-opiate receptors, [3H]-naloxone receptor binding assay. The conditions noted are these: membranes of CHO cells expressing human μ-opiate receptor.
The target of a further assay is human ORL1 receptor (Homo sapiens, UniProt P41146). The assay can be described thus: Affinity for human ORL1 receptors, [3H]-nociceptin receptor binding assay. The conditions noted are these: membranes of CHO cells expressing human ORL1 receptor.

For `CC1(C)[C@H]2CC[C@@H](CCN3CCC(N4C(=O)NCc5ccccc54)CC3)[C@@H]1C2`, the “affinity μ-opiate pKi” value at human μ-opiate receptor worked out at 7.3. Also, the “affinity ORL1 pKi” value on human ORL1 receptor was 7.8.

Source of the values: patent US7851630B2, “Hydronopol substituted benzimidazolone and quinazolinone derivatives as agonists on human ORL1 receptors” (dated 2010).
